Consider 1 substance from patent publication US11638716B2, “Compounds, compositions, and methods for the treatment of disease” (F-star Therapeutics, Inc., priority 2017, dated 2023).

For this test, the system named is NK-92 cells. The experiment in a line: IFN-γ production by NK-92 cells (ELISA). Type of test: cell-based. The conditions noted are these: NK-92 cells cultured in presence of IL-2. Here is the method:
FIG. 3A depicts NK-92 cells were stimulated with compound 4 alone in the absence of IL-2 for 23 hours. Levels of IFN-γ in culture supernatants were quantified using ELISA, and results were shown as pg/mL. Cells were also treated with control DMSO as well as cultured with medium in presence/absence of IL-2
FIG. 3B depicts that the growth of NK-92 cells is IL-2 dependent.
(In an ELISA, binding on a coated surface is turned into a signal by an enzyme label.)

With “IL-2: "the growth of NK-92 cells is IL-2 dependent. The presence of IL-2 is able to induce the production of IFN-γ"”, the “production of IFN-γ” value is given as “able to induce the production of IFN-γ”.
